According to BindingDB's records for patent US9199927 (Astellas Pharma, 2015):
pIC50: −log10 of the molar value.

Molecular target: T1, Trypsinogen 16 (Mus musculus, UniProt Q9Z1R9)
T1 sequence (Q9Z1R9 whole entry): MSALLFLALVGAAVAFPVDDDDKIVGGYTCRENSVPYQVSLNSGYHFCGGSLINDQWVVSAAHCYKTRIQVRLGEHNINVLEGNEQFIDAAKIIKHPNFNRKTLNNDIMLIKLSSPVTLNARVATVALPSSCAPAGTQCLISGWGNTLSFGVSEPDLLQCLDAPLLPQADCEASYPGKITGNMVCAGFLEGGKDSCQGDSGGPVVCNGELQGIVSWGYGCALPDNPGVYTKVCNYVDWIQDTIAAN
Assay: Inhibition Assay
Details: pH 8; 25 °C
Description: The compound was dissolved in dimethyl sulfoxide (DMSO), and diluted to an arbitrary concentration (A). A was 100-fold diluted with a buffer (0.1 M Tris (pH 8.0), 0.15 M NaCl, 10 mM CaCl2, 0.05% Brij38) (B). The r-h trypsin was diluted with a buffer to 0.088 ug/mL, and the m-trypsin was diluted with a buffer to 1/50 (C). […] The substrate solution of a substrate for the enzyme reaction, BZiPAR, (Rhodamine Reference Substrate) was diluted with a buffer to 5 umol/L (D). B; 5 uL, C; 5 uL, and D; 10 uL were added to a 384-plate, and incubated at room temperature for 30 minutes. The fluorescent signals were detected with Ex/Em = 497/520 using Tecan Safire Fluorometer. The compound was reviewed from 2500 nM to its 3-fold value, 0.0075 nM, at 12 concentrations, and the inhibitory rate of each compound was calculated.

- pIC50: 9.55
Compound: N=C(N)Nc1ccc(C(=O)Oc2ccc(CCC(=O)N[C@@H](CC(=O)O)c3ccccc3)c(Cl)c2)cc1 [US9199927, 23]
